{"sequences": {"note": "Protein sequences, listed by entry. Tags and fused reporters are not part of them.", "UniProt P20272, whole entry": "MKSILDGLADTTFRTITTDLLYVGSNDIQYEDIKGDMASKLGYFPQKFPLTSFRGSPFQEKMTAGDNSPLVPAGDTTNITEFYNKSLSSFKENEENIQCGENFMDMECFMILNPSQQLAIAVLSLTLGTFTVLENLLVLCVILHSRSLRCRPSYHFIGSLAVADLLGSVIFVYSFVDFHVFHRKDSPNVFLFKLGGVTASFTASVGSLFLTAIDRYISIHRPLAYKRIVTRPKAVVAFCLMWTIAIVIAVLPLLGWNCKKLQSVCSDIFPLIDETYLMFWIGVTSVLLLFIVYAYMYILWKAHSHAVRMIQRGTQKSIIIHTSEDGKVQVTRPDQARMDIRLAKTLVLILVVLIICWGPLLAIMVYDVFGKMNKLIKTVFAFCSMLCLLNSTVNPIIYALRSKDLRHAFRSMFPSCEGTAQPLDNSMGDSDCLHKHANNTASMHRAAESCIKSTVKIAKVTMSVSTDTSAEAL"}, "source": "patent US5624941A", "about": "“Pyrazole derivatives, method of preparing them and pharmaceutical compositions in which they are present” (Sanofi, priority 1992, dated 1997)", "molecular_target": "central cannabinoid receptors (Rattus norvegicus, UniProt P20272)", "details": "compound or one of its pharmaceutically acceptable salts", "data": [{"molecule": "Cc1c(C(=O)NN2CCCCC2)nn(-c2ccc(Cl)cc2Cl)c1-c1ccc(Cl)cc1", "note": "[N-piperidino-5-(4-chlorophenyl)-1-(2,4-dichlorophenyl)-4-methyl-pyrazole-3-carboxamide]", "values": [{"measurement": "affinity for the central cannabinoid receptors", "value": "very good affinity"}]}]}
